This note sets out measurements from patent US20190010203A1 (ADEPTHERA, published 2019).

Amino acid sequences for entries named in this document (tags omitted). Residues count along the entry.
UniProt Q16602, 23-461 limits assumed, chain 1 of 2: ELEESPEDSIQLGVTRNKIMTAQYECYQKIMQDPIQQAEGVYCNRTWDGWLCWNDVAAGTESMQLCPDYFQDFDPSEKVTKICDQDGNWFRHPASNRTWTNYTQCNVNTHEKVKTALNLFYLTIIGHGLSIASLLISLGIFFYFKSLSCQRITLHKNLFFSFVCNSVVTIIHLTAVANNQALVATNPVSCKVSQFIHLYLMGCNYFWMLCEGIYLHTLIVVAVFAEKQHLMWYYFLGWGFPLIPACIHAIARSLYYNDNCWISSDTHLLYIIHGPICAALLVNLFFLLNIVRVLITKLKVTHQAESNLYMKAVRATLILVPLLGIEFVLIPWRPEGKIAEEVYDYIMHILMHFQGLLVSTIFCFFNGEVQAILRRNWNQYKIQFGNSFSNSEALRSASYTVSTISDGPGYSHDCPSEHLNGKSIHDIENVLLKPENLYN
CLR/RAMP3 receptor, UniProt O60896, 24-148 limits assumed, chain 2 of 2: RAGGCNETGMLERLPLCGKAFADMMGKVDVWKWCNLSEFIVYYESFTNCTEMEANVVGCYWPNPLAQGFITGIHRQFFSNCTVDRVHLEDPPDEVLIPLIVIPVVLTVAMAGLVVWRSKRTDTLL

This experiment has as its target CLR/RAMP3 receptor (UniProt Q16602 23-461; O60896 24-148, limits assumed). As to the kind of experiment: cell-based or functional assay.

For the molecule KGCRFGTCTVQKLAHQIYQFTDKDKDNSAPVDPSSPHSY (N-terminal miniPEG; palmitoyl on Lys 1 side chain, K(PAL); C-terminal amide) [SEQ ID NO: 28], the “EC50 (nM), CLR/RAMP3 cAMP assay” value came to 0.06 nM.
